Earlier results as cited in patent publication US8378104B2 (OSI Pharmaceuticals, LLC, priority 2010, dated 2013).

Test system: picryl chloride-induced ear swelling
Details: picryl chloride-induced ear swelling mouse model; cited from earlier work

Structure (SMILES): COc1cc(O)c2c(c1)/C=C/C[C@H](O)[C@H](O)C(=O)/C=C\C[C@H](C)OC2=O
- inflammation in ear swelling model: relieves inflammation
